The source of these data is ChEMBL document CHEMBL1275443, “Functional diversity among metallo-beta-lactamases: characterization of the CAR-1 enzyme of Erwinia carotovora” (2008).

Each structure is given as a SMILES string.

For one assay, the system named is Bradyrhizobium japonicum. Put plainly: Ratio of Kcat to Km for Bradyrhizobium japonicum beta-Lactamase BJP-1.
Assay [1] has as its system Pectobacterium atrosepticum. In words: Activity of Erwinia carotovora subsp. atroseptica DSM 30184 beta-lactamase CAR-1.
Assay [2] relates to Pectobacterium atrosepticum. In words: Ratio of Kcat to Km for Erwinia carotovora subsp. atroseptica DSM 30184 beta-Lactamase CAR-1.

Consider `CC(C)(O/N=C(\C(=O)N[C@@H]1C(=O)N2C(C(=O)[O-])=C(C[n+]3ccccc3)CS[C@H]12)c1csc(N)n1)C(=O)O`, for which the kcat/Km with Bradyrhizobium japonicum amounted to 4.3 ×10³ /M/s.
For the molecule `C[C@@H](O)[C@H]1C(=O)N2C(C(=O)O)=C(S[C@@H]3CN[C@H](C(=O)N(C)C)C3)[C@H](C)[C@H]12`, the kcat/Km in the assay with Bradyrhizobium japonicum came out at 8.3 ×10⁵ /M/s. Moreover, in assay [1], the Km (in general, the substrate concentration at which the rate is half of its maximum) was more than 990 µM; the kcat (as a rule, the number of substrate molecules converted per active site and unit of time at saturation) is more than 1 s⁻¹. For the same molecule, in assay [2], the kcat/Km was determined as 9.6 ×10² /M/s.
With `CC(=O)OCC1=C(C(=O)O)N2C(=O)[C@@H](NC(=O)Cc3cccs3)[C@H]2SC1`, in the assay on Bradyrhizobium japonicum, the kcat/Km turned out to be 5.8 ×10⁵ /M/s.
